Source: patent US10222368B2 (priority 2012, dated 2019)

The chains behind the UniProt entries cited, without tags or fusion partners. Residues count along the entry.
UniProt A0A8I5ZV49, 1-2647: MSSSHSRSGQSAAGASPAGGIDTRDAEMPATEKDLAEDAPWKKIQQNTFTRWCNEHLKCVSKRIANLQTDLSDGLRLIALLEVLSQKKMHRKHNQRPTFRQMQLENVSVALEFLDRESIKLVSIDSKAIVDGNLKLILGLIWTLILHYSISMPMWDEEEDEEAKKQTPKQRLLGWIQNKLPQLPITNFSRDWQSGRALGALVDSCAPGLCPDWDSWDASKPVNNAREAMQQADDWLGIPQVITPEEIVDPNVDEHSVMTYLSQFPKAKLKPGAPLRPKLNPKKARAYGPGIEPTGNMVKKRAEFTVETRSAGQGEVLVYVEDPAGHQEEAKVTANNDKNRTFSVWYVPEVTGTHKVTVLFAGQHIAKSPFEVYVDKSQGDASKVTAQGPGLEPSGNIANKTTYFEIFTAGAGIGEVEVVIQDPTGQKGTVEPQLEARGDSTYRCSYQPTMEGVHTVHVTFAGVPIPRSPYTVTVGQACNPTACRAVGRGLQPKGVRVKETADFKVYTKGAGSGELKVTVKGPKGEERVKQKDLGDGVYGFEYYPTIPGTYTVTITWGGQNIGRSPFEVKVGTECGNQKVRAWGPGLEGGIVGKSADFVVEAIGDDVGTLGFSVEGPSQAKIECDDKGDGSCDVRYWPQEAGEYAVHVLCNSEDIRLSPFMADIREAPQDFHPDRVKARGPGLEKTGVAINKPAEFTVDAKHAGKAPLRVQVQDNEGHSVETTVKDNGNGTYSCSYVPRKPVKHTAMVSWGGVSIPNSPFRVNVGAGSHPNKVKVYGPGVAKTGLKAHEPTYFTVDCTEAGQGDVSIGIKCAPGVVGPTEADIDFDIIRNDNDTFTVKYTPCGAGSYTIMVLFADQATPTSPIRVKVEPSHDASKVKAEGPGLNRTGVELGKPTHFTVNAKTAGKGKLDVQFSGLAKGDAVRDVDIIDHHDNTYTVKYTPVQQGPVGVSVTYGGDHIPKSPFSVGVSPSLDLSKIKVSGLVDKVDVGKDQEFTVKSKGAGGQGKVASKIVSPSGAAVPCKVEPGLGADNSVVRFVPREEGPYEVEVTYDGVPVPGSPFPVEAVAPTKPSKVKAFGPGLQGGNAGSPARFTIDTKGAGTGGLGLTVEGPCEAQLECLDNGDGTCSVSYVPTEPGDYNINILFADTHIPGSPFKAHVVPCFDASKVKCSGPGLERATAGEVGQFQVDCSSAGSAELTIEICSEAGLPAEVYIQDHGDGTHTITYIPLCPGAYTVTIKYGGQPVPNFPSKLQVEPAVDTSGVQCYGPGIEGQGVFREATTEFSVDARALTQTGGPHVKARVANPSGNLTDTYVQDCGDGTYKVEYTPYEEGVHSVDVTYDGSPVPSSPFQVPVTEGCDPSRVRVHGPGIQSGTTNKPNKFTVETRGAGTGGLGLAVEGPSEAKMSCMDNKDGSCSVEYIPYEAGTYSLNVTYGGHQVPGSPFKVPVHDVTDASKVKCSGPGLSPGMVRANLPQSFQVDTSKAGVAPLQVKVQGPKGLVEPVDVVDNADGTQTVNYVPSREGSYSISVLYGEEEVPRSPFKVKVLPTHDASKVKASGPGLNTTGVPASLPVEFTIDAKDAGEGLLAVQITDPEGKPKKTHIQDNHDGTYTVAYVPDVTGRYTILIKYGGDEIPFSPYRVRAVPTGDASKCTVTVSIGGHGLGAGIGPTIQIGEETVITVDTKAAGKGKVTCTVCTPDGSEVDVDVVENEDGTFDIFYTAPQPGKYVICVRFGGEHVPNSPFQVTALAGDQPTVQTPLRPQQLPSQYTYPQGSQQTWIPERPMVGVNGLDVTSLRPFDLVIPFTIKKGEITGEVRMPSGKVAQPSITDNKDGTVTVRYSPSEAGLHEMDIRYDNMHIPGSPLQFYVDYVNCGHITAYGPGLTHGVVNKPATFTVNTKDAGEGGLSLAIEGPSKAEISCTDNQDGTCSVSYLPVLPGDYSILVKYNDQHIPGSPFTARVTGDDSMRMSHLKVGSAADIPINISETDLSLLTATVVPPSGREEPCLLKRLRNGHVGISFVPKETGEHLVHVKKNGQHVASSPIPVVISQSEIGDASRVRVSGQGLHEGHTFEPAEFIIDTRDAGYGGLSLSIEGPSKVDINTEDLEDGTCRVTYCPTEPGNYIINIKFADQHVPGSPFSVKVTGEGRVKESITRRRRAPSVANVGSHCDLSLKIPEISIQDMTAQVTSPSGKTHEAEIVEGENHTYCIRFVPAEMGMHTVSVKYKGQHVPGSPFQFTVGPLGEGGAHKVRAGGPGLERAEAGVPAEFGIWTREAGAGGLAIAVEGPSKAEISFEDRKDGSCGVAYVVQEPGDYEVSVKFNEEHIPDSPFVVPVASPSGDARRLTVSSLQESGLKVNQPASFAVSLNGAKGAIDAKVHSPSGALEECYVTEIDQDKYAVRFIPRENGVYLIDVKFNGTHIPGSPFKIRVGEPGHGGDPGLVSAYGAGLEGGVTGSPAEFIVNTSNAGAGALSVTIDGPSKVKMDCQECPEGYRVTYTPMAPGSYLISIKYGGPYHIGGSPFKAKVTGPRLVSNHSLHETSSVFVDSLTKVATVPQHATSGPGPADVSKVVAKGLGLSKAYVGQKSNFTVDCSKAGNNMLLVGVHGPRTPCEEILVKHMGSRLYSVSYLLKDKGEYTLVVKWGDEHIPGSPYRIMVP
UniProt P33535, whole entry: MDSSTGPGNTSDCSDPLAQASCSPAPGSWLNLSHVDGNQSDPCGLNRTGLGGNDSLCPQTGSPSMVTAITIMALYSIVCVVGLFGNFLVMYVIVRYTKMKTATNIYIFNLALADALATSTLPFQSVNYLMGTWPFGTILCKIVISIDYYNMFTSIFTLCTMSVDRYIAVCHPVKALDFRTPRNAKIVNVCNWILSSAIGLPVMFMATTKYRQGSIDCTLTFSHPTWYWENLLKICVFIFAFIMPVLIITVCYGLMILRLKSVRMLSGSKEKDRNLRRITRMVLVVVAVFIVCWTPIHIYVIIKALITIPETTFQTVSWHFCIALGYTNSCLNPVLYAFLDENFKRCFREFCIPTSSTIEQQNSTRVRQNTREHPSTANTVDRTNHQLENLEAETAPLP
UniProt P35372, whole entry, species assumed: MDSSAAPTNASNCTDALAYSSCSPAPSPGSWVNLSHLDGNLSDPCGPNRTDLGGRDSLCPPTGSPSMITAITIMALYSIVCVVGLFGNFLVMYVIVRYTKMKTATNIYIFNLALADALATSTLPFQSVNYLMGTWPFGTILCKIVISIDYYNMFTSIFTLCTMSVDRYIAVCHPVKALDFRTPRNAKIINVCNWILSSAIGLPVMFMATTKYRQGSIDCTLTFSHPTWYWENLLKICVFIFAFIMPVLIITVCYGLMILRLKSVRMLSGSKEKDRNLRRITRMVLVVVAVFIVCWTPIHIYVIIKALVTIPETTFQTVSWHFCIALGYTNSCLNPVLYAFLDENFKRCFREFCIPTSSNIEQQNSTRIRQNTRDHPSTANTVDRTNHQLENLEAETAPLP
UniProt P41143, whole entry: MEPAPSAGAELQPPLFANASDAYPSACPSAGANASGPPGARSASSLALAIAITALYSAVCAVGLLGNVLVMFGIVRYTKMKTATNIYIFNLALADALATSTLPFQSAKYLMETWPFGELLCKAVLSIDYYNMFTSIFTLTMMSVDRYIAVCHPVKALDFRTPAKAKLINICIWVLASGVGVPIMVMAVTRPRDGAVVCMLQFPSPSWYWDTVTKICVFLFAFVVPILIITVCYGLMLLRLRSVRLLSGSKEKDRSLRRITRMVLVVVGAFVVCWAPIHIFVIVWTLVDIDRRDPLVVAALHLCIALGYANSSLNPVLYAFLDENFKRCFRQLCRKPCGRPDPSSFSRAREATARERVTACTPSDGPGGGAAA

Tests used:
α7nAChR-FLNA association = target: T1, α7nAChR-FLNA association (Rattus norvegicus, UniProt A0A8I5ZV49); assay: Rat frontal cortical synaptosomes treated with Aβ42, anti-FLNA immunoprecipitation / Western blot; type: cell-based; details: 0.1 or 1 nM compound, simultaneously with or 10 min prior to Aβ42
T1 construct: from tissue; host or cells: rat frontal cortical synaptosomes
From the text: . The α7nAChR-FLNA complexes in the solubilized synaptosomes were immunoprecipitated with immobilized anti-FLNA and the α7nAChR and FLNA levels in the anti-FLNA immunoprecipitates determined by Western blotting (FIG. 14A) and quantified by densitometry for illustrative compounds (FIG. 14B). n=3. […] FIG. 4C illustrates similar results to those of FIGS. 14A and 14B from a separate, but similar study. […] The letter designation “M” that accompanies many of the “C-series” compounds is omitted from FIG. 14, the remaining figures and most discussions of the figures and compounds hereinafter for ease in expression. Structural formulas of the compounds used in this and the other figures are provided hereinafter.
The complexes in the solubilized synaptosomes, and α7nAChR, TLR4 and FLNA levels in the anti-FLNA immunoprecipitates were determined by Western blotting (FIG. 15A) in which numerals outside of and to the left of the blots are as discussed before. Amounts present in the blots were quantified by densitometry (FIG. 15B). […] Structural formulas of the compounds used in this and the other figures are provided hereinafter.

mu opiate receptor (MOR) = target: T2, mu opiate receptor (MOR) (Rattus norvegicus, UniProt P33535); assay: MOR agonist activity using [35S]GTPγS binding assay in striatal membranes; type: biochemical
T2 construct: from tissue; host or cells: striatal tissue (membrane preparation)

MU opioid receptor = MU opioid receptor (Homo sapiens, UniProt P35372); design: key: “−” = antagonist; “+” = agonist; P = partial agonist; “NR” = not reported in the published table; details: cited from earlier work
DELTA opioid receptor = DELTA opioid receptor (Homo sapiens, UniProt P41143); details: cited from earlier work

O=C1CN(Cc2ccccc2)C2(CCN(S(=O)(=O)c3cc(Cl)cc(Cl)c3O)CC2)N1 [Compound C0138M]
Effect on Aβ42-induced α7nAChR-FLNA association (in words) (α7nAChR-FLNA association): reduce α7nAChR-FLNA association

O=S(=O)(c1ccc(F)cc1)N1CCOC12CCN(CC1CC1)CC2 [F-C0134]
MOR agonist activity, [35S]GTPγS binding, FLNA-binding compound as agonist at 0.1 μM (mu opiate receptor (MOR); 0.1 μM compound, Series C-2): 290.6%
MOR agonist activity, [35S]GTPγS binding, 1 μM + BFNA (mu opiate receptor (MOR); 1 μM compound + 1 μM β-FNA (MOR antagonist)): 66.6%
MOR agonist activity, [35S]GTPγS binding, FLNA-binding compound as agonist at 1 μM (mu opiate receptor (MOR); 1 μM compound, Series C-2): 378.9%

COc1c2c(cc3c1C(CC(=O)Cc1ccccc1F)[N+](C)(C)CC3)OCO2.[I-] (stereo not drawn) [Compound B0055]
Effect on Aβ42-induced α7nAChR-FLNA association (in words) (α7nAChR-FLNA association): reduce α7nAChR-FLNA association

Oc1ccc2c(c1)[C@@]13CCCC[C@@]1(O)[C@@H](C2)N(CC1CCC1)CC3 [Ethyl Ketocyclazcine]
Opioid receptor activity and relative potency, MU (MU opioid receptor): P
Opioid receptor activity and relative potency, DELTA (DELTA opioid receptor): +

O=C1CN(Cc2ccccc2)C2(CCN(C3CCCCC3)CC2)N1 [Compound C0137M]
Effect on Aβ42-induced α7nAChR-FLNA association (in words) (α7nAChR-FLNA association): reduce α7nAChR-FLNA association

Cyprodime
Opioid receptor activity and relative potency, MU (MU opioid receptor): − −
